Values quoted from earlier work, collected in patent publication US20230034359A1, “GENERATION OF MATURE KUPFFER CELLS” (AGENCY FOR SCIENCE, TECHNOLOGY AND RESEARCH, priority 2018, published 2023).
Where “and” joins values, the source holds several entries; their conditions need not be identical. Identical values can stand only once.

Tested on: KCs
Details: before versus after LPS stimulation, references [47] and [48]; cited from earlier work

lipopolysaccharide [LPS]
fold induction of TNFα: 5 folds and 10 folds
